Data as given in US20250066290A1, “DHODH INHIBITORS CONTAINING A CARBOXYLIC ACID BIOISOSTERE” (IMMUNIC AG, priority 2021, published 2025).

By UniProt entry, the sequences of proteins in these tests, tags left out. Where a name states a change or a piece, a line headed by the entry shows the natural chain unless it says otherwise.
UniProt Q02127: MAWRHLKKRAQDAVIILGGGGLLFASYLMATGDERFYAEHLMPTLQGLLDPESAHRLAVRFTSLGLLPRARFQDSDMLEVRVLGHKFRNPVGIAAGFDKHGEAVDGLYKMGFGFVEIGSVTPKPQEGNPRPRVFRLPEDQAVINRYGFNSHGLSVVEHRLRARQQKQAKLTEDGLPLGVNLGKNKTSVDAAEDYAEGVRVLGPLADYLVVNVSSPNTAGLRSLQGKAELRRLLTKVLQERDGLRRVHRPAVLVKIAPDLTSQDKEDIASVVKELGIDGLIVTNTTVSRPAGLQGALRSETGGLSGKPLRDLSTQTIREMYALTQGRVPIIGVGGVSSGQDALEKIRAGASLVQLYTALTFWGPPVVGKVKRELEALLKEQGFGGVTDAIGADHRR

Molecular target: N-terminally truncated recombinant hDHODH enzyme (Homo sapiens, UniProt Q02127)
Experiment: biochemical

Question: With `[2H]C([2H])([2H])Oc1cccc(-c2cc(F)c(NC(=O)C3=C(C(=O)NOC)CSC3)c(F)c2)c1` [Example 6, N^3-(3,5-Difluoro-3′-(methoxy-d3)-[1,1′-biphenyl]-4-yl)-N^4-methoxy-2,5-dihydrothiophene-3,4-dicarboxamide] as the molecule, how does the IC50 read?
Answer: Its IC50 is < 0.1 µM.
